Assay results reported in US20250034579A1, “METHODS AND COMPOSITIONS FOR GENETICALLY MODIFYING HUMAN GUT MICROBES” (Cornell University, priority 2021, published 2025).

System: Clostridia microbes
Conditions: 92 Clostridia microbes; TSAB or BHIB plates with 15 μg/mL thiamphenicol

CS(=O)(=O)c1ccc([C@@H](O)[C@@H](CO)NC(=O)C(Cl)Cl)cc1 [thiamphenicol]
sensitivity to thiamphenicol: all sensitive
